The numbers were not newly measured in patent US6017932A, “Pharmaceutical compositions containing at least one NSAID having increased bioavailability” (priority 1996, dated 2000), which cites them from elsewhere.

SMILES strings stand for the structures.

The data set concerns COX-II. Particulars: vs COX-I; cited from earlier work.

Regarding `CS(=O)(=O)Nc1cc2c(cc1Oc1ccc(F)cc1F)C(=O)CC2` [Flosulide], the “COX-II selectivity (in words)” value is recorded as “selectively inhibit the detrimental COX-II”.
